Experimental data published in US20060189551A1 (priority 2004, published 2006).

Tests used:
[1] = system: aspartokinase self-interaction; assay: Yeast two-hybrid assay of aspartokinase self-interaction (AK-AK), lacZ reporter; assay type: cell-based, S. cerevisiae; settings: two-hybrid strain PJ69-4A, 10 μg of FK506/mL
[2] = system: hom6Δ mutant strain MAY308; assay: FK506 sensitivity of hom6Δ mutant: paper disk diffusion on YPD, liquid culture growth (OD600) and microscopy; assay type: cell-based, S. cerevisiae
Description: Approximately 10^7 cells from hom6Δ mutant strain MAY308 were plated on solid YPD medium and exposed to 250 μg of FK506 diffusing form a paper disk. A control paper disk containing only the FK506 solvent (90% EtOH plus 10% Tween 20) was included. The plate was incubated at 30° C. for 2 days and photographed. As control, the same assay was conducted with isogenic wild-type strain BY4742.
FIG. 7C. hom6Δ cells from the FK506-exposed culture described for FIG. 7B were photographed using differential interference contrast microscopy after 22 hours of incubation with drug.
FK506 mimics the lethal effect of an fpr1Δ mutation in a homoserine dehydrogenase-deficient mutant. […] (FIGS. 7A, 7B, and 7C).

Q: With `C=CC[C@@H]1/C=C(\C)C[C@H](C)C[C@H](OC)[C@H]2O[C@@](O)(C(=O)C(=O)N3CCCC[C@H]3C(=O)O[C@H](/C(C)=C/[C@@H]3CC[C@@H](O)[C@H](OC)C3)[C@H](C)[C@@H](O)CC1=O)[C@H](C)C[C@@H]2OC` (relative stereo) [FK506, [3S-[3R*[E(1S*,3S*,4S*)],4S*,5R*,8S*,9E,12R*,14R*,15S*,16R*,18S*,19S*,26aR*]]-5,6,8,11,12,13,14,15,16,17,18,19,24,25,26,26a-hexadecahydro-5,19-dihydroxy-3-[2-(4-hydroxy-3-methoxycyclohexyl)-1-methylethenyl]-14,16-dimethoxy-4,10,12,18-tetramethyl-8-(2-propenyl)-15,19-epoxy-3H-pyrido[2,1-c][1,4]oxaazacyclotricosine-1,7,20,21(4H,23H)-tetrone] as the compound, how does the “aspartokinase self-interaction (wild-type and mutant) in the presence of FK506” value [1] read?
A: The value was “detected in the presence of FK506”.

Q: What about the “cell morphology of hom6Δ mutant cells exposed to FK506” value ([2]; 10 μg of FK506/mL, 22 hours, differential interference contrast microscopy) of the same compound?
A: The value was “abnormal morphologies, indicative of a cytokinesis defect”.

Q: What about the “sensitivity of hom6Δ mutant to FK506 (growth)” value ([2]; 250 μg FK506 on paper disk on YPD, 30° C., 2 days, 10 μg of FK506/mL in liquid YPD, wild-type BY4742 as control) of the same compound?
A: The value was “hom6Δ mutation confers sensitivity to FK506”.
